Assay results taken from US10898481B2 (priority 2018, dated 2021).
Read-outs that look alike come from different tables or passages of the source.

Sequences of proteins named here, by UniProt entry; tags and fusion partners are left off. A change or cut given only in a name is not applied to a line headed by its entry.
UniProt P30542, whole entry: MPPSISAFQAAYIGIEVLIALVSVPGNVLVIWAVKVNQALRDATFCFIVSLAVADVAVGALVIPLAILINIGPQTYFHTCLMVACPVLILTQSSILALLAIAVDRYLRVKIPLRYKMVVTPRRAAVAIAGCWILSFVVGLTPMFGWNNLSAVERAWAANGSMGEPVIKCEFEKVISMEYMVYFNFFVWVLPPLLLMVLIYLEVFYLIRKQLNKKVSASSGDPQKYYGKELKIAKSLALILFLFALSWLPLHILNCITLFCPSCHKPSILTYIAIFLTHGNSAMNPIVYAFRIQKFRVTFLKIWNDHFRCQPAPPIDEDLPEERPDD
UniProt P29275: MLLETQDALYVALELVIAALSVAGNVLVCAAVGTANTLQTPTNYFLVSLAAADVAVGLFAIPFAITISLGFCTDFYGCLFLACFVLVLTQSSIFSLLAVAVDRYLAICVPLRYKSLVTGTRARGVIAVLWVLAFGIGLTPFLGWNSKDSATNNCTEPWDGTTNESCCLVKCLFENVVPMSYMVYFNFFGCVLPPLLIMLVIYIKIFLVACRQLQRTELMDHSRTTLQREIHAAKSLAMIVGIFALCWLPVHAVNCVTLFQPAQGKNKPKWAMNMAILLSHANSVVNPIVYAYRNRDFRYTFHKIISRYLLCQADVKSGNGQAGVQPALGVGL
UniProt Q60613, whole entry: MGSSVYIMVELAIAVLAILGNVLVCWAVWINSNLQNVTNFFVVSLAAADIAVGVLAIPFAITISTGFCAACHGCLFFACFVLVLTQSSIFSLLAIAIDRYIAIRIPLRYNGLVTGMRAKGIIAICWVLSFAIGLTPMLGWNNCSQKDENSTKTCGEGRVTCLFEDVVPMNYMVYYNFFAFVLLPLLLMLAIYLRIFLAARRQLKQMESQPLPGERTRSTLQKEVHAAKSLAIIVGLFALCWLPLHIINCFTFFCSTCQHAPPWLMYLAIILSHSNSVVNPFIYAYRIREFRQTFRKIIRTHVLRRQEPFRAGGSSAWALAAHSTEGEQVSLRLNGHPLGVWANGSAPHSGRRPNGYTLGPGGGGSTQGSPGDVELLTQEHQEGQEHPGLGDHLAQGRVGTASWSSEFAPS

Tests used:
[1] = biological target: hA1 (Homo sapiens (Human), UniProt P30542); assay: biochemical; conditions: Binding Affinity (IC50 nM) hA1, hA1 membrane, [3H]-DPCPX
Source text: (§1) The empty boxes in the tables below indicate data not collected yet.

[2] = biological target: hADORA1/CHO (hA1 expressing) cells (Homo sapiens (Human), UniProt P30542); assay: cell-based; conditions: 10 μM adenosine
[3] = biological target: hA2a/CHO (Homo sapiens (Human), UniProt P29274); assay: cAMP inhibition assay in hA2a/CHO cells, 10 μM adenosine; format: cell-based;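 also: compounds added to cells 30 min ahead of adenosine, then a further 30 min at 37 °C with adenosine before cAMP detection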
[4] = biological target: hA2b/CHO (Homo sapiens (Human), UniProt P29275); assay: cAMP inhibition assay in hA2b/CHO cells, 10 μM adenosine; format: cell-based;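 also: cells exposed to compound 30 min at 37 °C, then stimulated with adenosine a further 30 min, cAMP read after 60 min at room temperature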
[5] = biological target: mA2a/CHO (Mus musculus (Mouse), UniProt Q60613); assay: cAMP inhibition assay in mA2a/CHO cells, 10 μM adenosine; format: cell-based;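 also: compounds preincubated 30 min at 37 °C before the adenosine challenge, then 30 min further stimulation, readout after 60 min detection reagent incubation at room temperature in 384-well plates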
[6] = biological target: hA2a (Homo sapiens (Human), UniProt P29274); assay: Radioligand binding to hA2a membrane with [3H]-CGS21680; conditions: read-out: Binding Affinity (IC50 nM) hA2a
Source text: as §1

[7] = FLIPR inhibition, read-out: cAMP & FLIPR IC50 (nM) hA1
[8] = cAMP & FLIPR IC50 (nM) hA1, FLIPR inhibition
[9] = read-out: cAMP & FLIPR IC50 (nM) hA2a
[10] = read-out: cAMP & FLIPR IC50 (nM) hA2b
[11] = read-out: cAMP & FLIPR IC50 (nM) mA2a

Structure (SMILES)	IC50 [2, 8] [nM]	IC50 [3, 9] [nM]	IC50 [4, 10] [nM]	IC50 [5, 11] [nM]	further results
Cc1cnc2ccc(-c3nc(C(=O)NCC4CCCN4C)c(N)nc3-c3ncco3)cn12 (single isomer, unassigned) [Example 120]					IC50 [1]: 156 nM; IC50 [2, 7]: 10000 nM
Cc1cnc2ccc(-c3nc(C(=O)NCC4CCCN4C)c(N)nc3-c3ncco3)cn12 (single isomer, unassigned) [Example 121]					IC50 [1]: 116 nM
Cc1cnc2ccc(-c3nc(C(=O)NCC4CCN(C)C4=O)c(N)nc3-c3ncco3)cn12 (single isomer, unassigned; isomer 1) [Example 216, 3-amino-N-((1-methyl-2-oxopyrrolidin-3-yl)methyl)-6-(3-methylimidazo[1,2-a]pyridin-6-yl)-5-(oxazol-2-yl)pyrazine-2-carboxamide (isomer 1)]	799	5.1	282	24	
Cc1cnc2ccc(-c3nc(C(=O)NCC4CCN(C)C4=O)c(N)nc3-c3ncco3)cn12 (single isomer, unassigned; isomer 2) [Example 222, 3-amino-N-((1-methyl-2-oxopyrrolidin-3-yl)methyl)-6-(3-methylimidazo[1,2-a]pyridin-6-yl)-5-(oxazol-2-yl) pyrazine-2-carboxamide (isomer 2)]	> 10000	9.6	2770	43	
NCc1cnc2ccc(-c3nc(C(=O)NCc4ncccc4F)c(N)nc3-c3ncco3)cn12 [Cmpd. 198, 3-amino-6-(3-(aminomethyl)imidazo[1,2-a]pyridin-6-yl)-N-((3-fluoropyridin-2-yl)methyl)-5-(oxazol-2-yl)pyrazine-2-carboxamide]		3.6	38	31	
Cc1cnc2ccc(-c3nc(C(=O)NCc4ncccc4F)c(N)nc3N3CCOCC3)cn12 [Cmpd. 223, 3-amino-N-[(3-fluoropyridin-2-yl)methyl]-6-[3-methylimidazo[1,2-a]pyridin-6-yl]-5-(morpholin-4-yl)pyrazine-2-carboxamide]		9.9	525	132	
Cc1cnc2ccc(-c3nc(C(=O)NC[C@H]4CCCN4C)c(N)nc3-c3cccc(F)c3)cn12 [Cmpd. 231, (R)-3-amino-5-(3-fluorophenyl)-6-(3-methylimidazo[1,2-a]pyridin-6-yl)-N-((1-methylpyrrolidin-2-yl)methyl)pyrazine-2-carboxamide]	306				
Cc1cnc2ccc(-c3nc(C(=O)N[C@@H](C)CC(=O)N(C)C)c(N)nc3-c3ncco3)cn12 [Cmpd. 234, (3 S)-3-[(3-amino-6-[3-methylimidazo[1,2-a]pyridin-6-yl]-5-(1,3-oxazol-2-yl)pyrazin-2-yl)formamido]-N,N-dimethylbutanamide]		5.3			IC50 [2, 7]: 836 nM
Cc1cnc2ccc(-c3nc(C(=O)N[C@H](C)CC(=O)N(C)C)c(N)nc3-c3ncco3)cn12 [Cmpd. 236, (3R)-3-[(3-amino-6-[3-methylimidazo[1,2-a]pyridin-6-yl]-5-(1,3-oxazol-2-yl)pyrazin-2-yl)formamido]-N,N-dimethylbutanamide]		17			IC50 [2, 7]: > 10000 nM
Cc1cnc2ccc(-c3nc(CNC(=O)[C@H]4CCCN4C)c(N)nc3-c3ccc(F)c(F)c3)cn12 [Cmpd. 257, (2R)—N-[[3-amino-5-(3,4-difluorophenyl)-6-[3-methylimidazo[1,2-a]pyridin-6-yl]pyrazin-2-yl]methyl]-1-methylpyrrolidine-2-carboxamide]	20				
Cc1cnc2ccc(-c3nc(C(=O)NC[C@H]4CCCN4C)c(N)nc3-c3ccccc3)cn12 [Cmpd. 259, 3-amino-6-[3-methylimidazo[1,2-a]pyridin-6-yl]-N-[[(2R)-1-methylpyrrolidin-2-yl]methyl]-5-phenylpyrazine-2-carboxamide]	47				
Cc1cnc2ccc(-c3nc(C(=O)NC[C@H]4CCCN4C)c(N)nc3-c3ccc(F)c(F)c3)cn12 [Cmpd. 272, 3-amino-5-(3,4-difluorophenyl)-6-[3-methylimidazo[1,2-a]pyridin-6-yl]-N-[[(2R)-1-methylpyrrolidin-2-yl]methyl]pyrazine-2-carboxamide]	338				
Cn1cc(-c2nc(C(=O)NCc3ncccc3OC(F)F)c(N)nc2-c2ncco2)ccc1=O [Example 19, 3-amino-N-[[3-(difluoromethoxy)pyridin-2-yl]methyl]-6-(1-methyl-6-oxo-1,6-dihydropyridin-3-yl)-5-(1,3-oxazol-2-yl)pyrazine-2-carboxamide]			51	8.8	
Nc1nc(-c2ncco2)c(-c2ccc3[nH]cnc3c2)nc1C(=O)NCc1ncccc1F [Example 47, 3-amino-6-(1H-1,3-benzodiazol-5-yl)-N-[(3-fluoropyridin-2-yl)methyl]-5-(1,3-oxazol-2-yl)pyrazine-2-carboxamide]		57	141	3260	IC50 [6]: 2.6 nM
Cn1cc(-c2nc(C(=O)NCc3nc(N)ccc3F)c(N)nc2-c2ncco2)ccc1=O [Example 49, 3-amino-N-((6-amino-3-fluoropyridin-2-yl)methyl)-6-(1-methyl-6-oxo-1,6-dihydropyridin-3-yl)-5-(oxazol-2-yl)pyrazine-2-carboxamide]					IC50 [6]: 5.3 nM; IC50 ([3]; cAMP & FLIPR IC50 (nM) hA2a): 138 nM; IC50 ([4]; cAMP & FLIPR IC50 (nM) hA2b): 309 nM; IC50 ([5]; cAMP & FLIPR IC50 (nM) mA2a): 413 nM
Cc1cc(-c2nc(C(=O)NCc3ccccc3OC(F)(F)F)c(N)nc2-c2ccc(F)cc2)cc(C)n1 [Example 65, 3-amino-6-(2,6-dimethylpyridin-4-yl)-5-(4-fluorophenyl)-N-(2-(trifluoromethoxy)benzyl)pyrazine-2-carboxamide]			≥ 10000		
Cc1cnc2ccc(-c3nc(C(=O)NCc4ncccc4F)c(N)nc3-c3ncco3)cn12 [Example 101, 3-amino-N-((3-fluoropyridin-2-yl)methyl)-6-(3-methylimidazo[1,2-a]pyridin-6-yl)-5-(oxazol-2-yl)pyrazine-2-carboxamide]		0.1	1.4	0.4	IC50 [6]: 2.4 nM
Nc1nc(-n2nccn2)c(-c2ccc3nccn3c2)nc1C(=O)NCc1ncccc1F [Example 104, 3-amino-N-[(3-fluoropyridin-2-yl)methyl]-6-[imidazo[1,2-a]pyridin-6-yl]-5-(2H-1,2,3-triazol-2-yl)pyrazine-2-carboxamide]		7.9	32	52	IC50 [6]: 6.2 nM
CNCCOc1cccnc1CNC(=O)c1nc(-c2ccc3ncn(C)c3c2)c(-c2ccc(F)cc2)nc1N [Example 115, 3-amino-5-(4-fluorophenyl)-6-(1-methyl-1H-1,3-benzodiazol-6-yl)-N-([3-[2-(methylamino)ethoxy]pyridin-2-yl]methyl)pyrazine-2-carboxamide]		3.2			IC50 [6]: 6.9 nM
Cc1cnc2ccc(-c3nc(C(=O)NC[C@H]4CCCN4C)c(N)nc3-c3ccc(F)cc3)cn12 [Example 138, 3-amino-5-(4-fluorophenyl)-6-[3-methylimidazo[1,2-a]pyridin-6-yl]-N-[[(2R)-1-methylpyrrolidin-2-yl]methyl]pyrazine-2-carboxamide]		7.1			IC50 [6]: 2.2 nM
Cc1cnc2ccc(-c3nc(C(=O)NC[C@@H]4CCCN4C)c(N)nc3-c3ccc(F)cc3)cn12 [Example 139, (S)-3-amino-5-(4-fluorophenyl)-6-(3-methylimidazo[1,2-a]pyridin-6-yl)-N-((1-methylpyrrolidin-2-yl)methyl) pyrazine-2-carboxamide]		8.8			IC50 [6]: 5.2 nM
Cc1cnc2ccc(-c3nc(C(=O)NCCC(=O)N4CCCC4)c(N)nc3-c3ncco3)cn12 [Example 217, 3-amino-6-(3-methylimidazo[1,2-a]pyridin-6-yl)-5-(oxazol-2-yl)-N-(3-oxo-3-(pyrrolidin-1-yl)propyl)pyrazine-2-carboxamide]	4790	8.5	594	8.3	
Cc1cnc2ccc(-c3nc(C(=O)NC45CC(C4)C5)c(N)nc3-c3ncco3)cn12 [Example 220, 3-amino-N-(bicyclo[1.1.1]pentan-1-yl)-6-(3-methylimidazo[1,2-a]pyridin-6-yl)-5-(oxazol-2-yl)pyrazine-2-carboxamide]	4670	1.7	2100	42	
Cc1cnc2ccc(-c3nc(C(=O)NC[C@@H]4CCN(C(=O)N(C)C)C4)c(N)nc3-c3ncco3)cn12 [Example 273, 3-amino-N-[[(3 S)-1-(dimethylcarbamoyl)pyrrolidin-3-yl]methyl]-6-[3-methylimidazo[1,2-a]pyridin-6-yl]-5-(1,3-oxazol-2-yl)pyrazine-2-carboxamide]		1.5			IC50 [2, 7]: 1310 nM
